This data set concerns NADPH. As to the kind of experiment: cells, lysate or membranes named. As to conditions: other: recombinant AdhA in cell extracts of P. furiosus strain A, 50 mM Mops pH 7.5, 2 mM DTT, 70° C., nonlinear regression.

Take “T. X514 AdhA (Thermoanaerobacter ethanolicus)”: the Km is 31 µM.

The Km is the concentration of substrate that gives half-maximal velocity.

These data come from patent US20150275238A1, “GENETICALLY ENGINEERED MICROBES AND METHODS FOR CONVERTING ORGANIC ACIDS TO ALCOHOLS” (UNIVERSITY OF GEORGIA RESEARCH FOUNDATION, INC., priority 2014, published 2015).
